Assay results as given in paper PMC3728988, “Kinetic mechanism of the dimeric ATP sulfurylase from plants” (Bioscience Reports, 2013).

Target: T1, soybean ATP sulfurylase isoform 1 (GmATPS1) (Glycine max, UniProt Q8SAG1)
T1 sequence (Q8SAG1 49-462): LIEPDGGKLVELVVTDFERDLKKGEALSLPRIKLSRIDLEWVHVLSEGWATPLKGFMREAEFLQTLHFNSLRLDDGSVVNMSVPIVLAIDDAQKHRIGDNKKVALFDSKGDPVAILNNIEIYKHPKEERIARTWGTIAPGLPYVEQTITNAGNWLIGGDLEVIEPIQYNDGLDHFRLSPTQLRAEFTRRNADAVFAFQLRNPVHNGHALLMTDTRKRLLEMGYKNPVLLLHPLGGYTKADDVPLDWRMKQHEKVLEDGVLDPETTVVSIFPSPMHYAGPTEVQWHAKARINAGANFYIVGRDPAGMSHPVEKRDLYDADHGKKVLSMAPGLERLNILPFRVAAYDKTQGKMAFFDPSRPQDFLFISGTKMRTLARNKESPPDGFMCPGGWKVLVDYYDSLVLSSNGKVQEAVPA
Assay: biochemical

For `Nc1ncnc2c1ncn2[C@@H]1O[C@H](COP(=O)(O)OS(=O)(=O)O)[C@@H](O)[C@H]1O` [APS], which Kd is on record?
The Kd was 440 ± 20 nM.
